For the assay, the species on record is Homo sapiens. Nature of the assay: Selectivity for C5aR over NK2 receptor.

Turning to `CC(C)CC[C@H](NC(=O)[C@@H]1CCCN1C(=O)[C@H](CCCN)NC(=O)[C@H](Cc1ccccc1)NC(=O)[C@@H]1CC(=O)NC(=O)N1)C(=O)N[C@@H](Cc1ccc(F)cc1)C(=O)N[C@H](Cc1ccccc1)C(N)=O`, the Ratio IC50 amounted to 18.

The values are drawn from ChEMBL document CHEMBL1148673, “Peptidomimetic C5a receptor antagonists with hydrophobic substitutions at the C-terminus: increased receptor specificity and in vivo activity” (Bioorg Med Chem Lett, 2006).
